Laboratory results as given in patent US8530489B2 (Vertex Pharmaceuticals Incorporated, priority 2006, dated 2013).

Sequences of proteins named here, by UniProt entry; tags and fusion partners are left off.
UniProt P53350, whole entry: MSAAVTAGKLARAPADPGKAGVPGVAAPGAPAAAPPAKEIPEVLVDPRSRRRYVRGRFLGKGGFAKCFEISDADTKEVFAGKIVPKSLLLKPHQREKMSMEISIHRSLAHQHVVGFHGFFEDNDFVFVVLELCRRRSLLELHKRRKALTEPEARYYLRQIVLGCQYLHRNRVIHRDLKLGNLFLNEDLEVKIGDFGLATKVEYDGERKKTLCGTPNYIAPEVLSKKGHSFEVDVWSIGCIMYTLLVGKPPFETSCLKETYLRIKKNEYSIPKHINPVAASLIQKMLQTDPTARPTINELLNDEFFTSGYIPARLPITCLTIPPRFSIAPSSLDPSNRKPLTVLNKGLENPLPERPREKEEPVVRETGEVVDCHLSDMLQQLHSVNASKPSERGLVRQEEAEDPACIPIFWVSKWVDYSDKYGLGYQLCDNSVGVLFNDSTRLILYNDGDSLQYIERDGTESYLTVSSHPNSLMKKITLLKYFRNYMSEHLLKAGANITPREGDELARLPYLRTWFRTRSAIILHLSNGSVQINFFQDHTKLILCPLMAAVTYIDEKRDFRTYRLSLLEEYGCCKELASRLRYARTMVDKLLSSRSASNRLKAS

Target: PLK1 (Homo sapiens, UniProt P53350)
Test: PLK1 Inhibition Assay I (radioactive-phosphate incorporation)
Conditions: read-out: PLK1 inhibition Ki; Ki(app); PLK1 Inhibition Assay I or II (table does not say which)
Experimental: The compounds of the present invention are evaluated as inhibitors of human PLK kinase using the following assays.
Compounds were screened for their ability to inhibit PLK1 using a radioactive-phosphate incorporation assay. Assays were carried out in a mixture of 25 mM HEPES (pH 7.5), 10 mM MgCl2, and 1 mM DTT. Final substrate concentrations were 350 μM [γ-33P]ATP (136 mCi 33P ATP/mmol ATP, Amersham Pharmacia Biotech/Sigma Chemicals) and 450 μM peptide (KKKISDELMDATFADQEAK) [SEQ. ID:1]. Assays were carried out at 25° C. in the presence of 2 nM PLK1. An assay stock buffer solution was prepared containing all of the reagents listed above, with the exception of ATP and the test compound of interest. 30 μL of the stock solution was placed in a 96 well plate followed by addition of 2 μL of DMSO stock containing serial dilutions of the test compound (typically starting from a final concentration of 10 μM with 2-fold serial dilutions) in duplicate (final DMSO concentration 5%). The plate was pre-incubated for 10 minutes at 25° C. and the reaction initiated by addition of 8 μL [γ-33P]ATP (final concentration 350 μM). […]
After removing mean background values for all of the data points, Ki(app) data were calculated from non-linear regression analysis of the initial rate data using the Prism software package (GraphPad Prism version 3.0cx for Macintosh, GraphPad Software, San Diego Calif., USA).

Ki: > 40 nM
Compound: CCN1CCCC1CNc1ncc(C#N)c(-c2c[nH]c3ncc(C(F)(F)F)cc23)n1 (stereo not shown)
